Laboratory results: PubChem BioAssay AID602141 (Sanford-Burnham Center for Chemical Genomics, 2011)
The entries are a selection whose mix differs from that of the whole data set. Active and inactive are the calls of the source.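 Rule for the calls: active = corrected activity change at or below -50% at 5 µM; inactive = the rest.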

Assay: cytotoxicity in KKLEB CF airway cells, primary screen, cytotoxicity control for CF NF-kB inhibitor project, cell-based, uHTS, fluorescence assay plates (AID 602141)
Settings: KKLEB CF airway cells viability, ATPlite luminescence, overnight; at 5 µM; hits give low values; cells stimulated with P. aeruginosa culture filtrate

Row | SMILES | activity change (cytotoxicity)
1 | CCC(=O)N(c1ccccc1)C1(COC)CCN(CCn2nnn(CC)c2=O)CC1 | inactive: -5.9%
2 | CCC(=O)N(c1ccccc1)C1(COC)CCN(CCc2cccs2)CC1 | inactive: -4.1%
